# In US20240009269A1 (priority 2020, published 2024):
# How the values were obtained:
# [1] = Solubility stated in text; assay type: physicochemical; details: read-out: solubility of melittin
# [2] = tested on: tissue-engineered dhBMECs microvessels; test: BBB opening in tissue-engineered BBB microvessels (500 kDa dextran leakage); assay type: cell-based, human; details: dose = concentration x perfusion time
# Method: Three-dimensional blood-brain barrier microvessels were fabricated as previously reported (FIGS. 10A and 10B) [Linville, R. M., et al., Biomaterials, 2019. 190-191: p. 24-37] 150 μm diameter and 1 cm long channels were patterned in 7 mg mL^−1 type I collagen (Corning) using nitinol wire (Malin Co.) housed within polydimethylsiloxane (PDMS; Dow Corning). Channels were cross-linked by incubation in 20 mM genipin (Wako Biosciences) for 2 hours to increase cell adhesion. 2dhBMECs were suspended in BBB induction medium at a concentration of 5×10^6 cells mL^−1 and seeded into channels. Microvessels were perfused using BBB induction medium for 24 hours and then switched to BBB maintenance medium. […]
# Live-cell imaging was conducted to study dynamic changes in in vitro BBB permeability and microvessel structure. […] Phase contrast and fluorescence images were acquired every two minutes with the focal plane set to the microvessel midplane. […]
# Image processing was performed using ImageJ (NIH) to quantify BBB opening (FIGS. 11A-11D). […] The permeability (cm s^−1) was calculated using P=(r/2)(1/ΔI)(dI/dt), where r is the vessel radius, ΔI is the increase in fluorescence intensity upon perfusion of the fluorophore, and (dI/dt) is the rate of increase in fluorescence intensity as solute exits into the gel. […]
structure (smiles),measurement,setting,value
CC[C@H](C)[C@H](NC(=O)CN)C(=O)NCC(=O)N[C@@H](C)C(=O)N[C@H](C(=O)N[C@@H](CC(C)C)C(=O)N[C@@H](CCCCN)C(=O)N[C@H](C(=O)N[C@@H](CC(C)C)C(=O)N[C@H](C(=O)N[C@H](C(=O)NCC(=O)N[C@@H](CC(C)C)C(=O)N1CCC[C@H]1C(=O)N[C@@H](C)C(=O)N[C@@H](CC(C)C)C(=O)N[C@H](C(=O)N[C@@H](CO)C(=O)N[C@@H](Cc1c[nH]c2ccccc12)C(=O)N[C@H](C(=O)N[C@@H](CCCCN)C(=O)N[C@@H](CCCNC(=N)N)C(=O)N[C@@H](CCCCN)C(=O)N[C@@H](CCCNC(=N)N)C(=O)N[C@@H](CCC(N)=O)C(=O)N[C@@H](CCC(N)=O)C(N)=O)[C@@H](C)CC)[C@@H](C)CC)[C@@H](C)O)[C@@H](C)O)C(C)C)C(C)C [melittin],solubility,[1],~350 µM
same,threshold dose for inducing focal leaks (opening),[2],20 µM·min
